# Measurements reported in BindingDB's records for doi:10.1016/0024-3205(83)90740-3 (University of Toronto, 1983).
# Sequences of proteins named here, by UniProt entry; tags and fusion partners are left off.
# UniProt P14842, whole entry: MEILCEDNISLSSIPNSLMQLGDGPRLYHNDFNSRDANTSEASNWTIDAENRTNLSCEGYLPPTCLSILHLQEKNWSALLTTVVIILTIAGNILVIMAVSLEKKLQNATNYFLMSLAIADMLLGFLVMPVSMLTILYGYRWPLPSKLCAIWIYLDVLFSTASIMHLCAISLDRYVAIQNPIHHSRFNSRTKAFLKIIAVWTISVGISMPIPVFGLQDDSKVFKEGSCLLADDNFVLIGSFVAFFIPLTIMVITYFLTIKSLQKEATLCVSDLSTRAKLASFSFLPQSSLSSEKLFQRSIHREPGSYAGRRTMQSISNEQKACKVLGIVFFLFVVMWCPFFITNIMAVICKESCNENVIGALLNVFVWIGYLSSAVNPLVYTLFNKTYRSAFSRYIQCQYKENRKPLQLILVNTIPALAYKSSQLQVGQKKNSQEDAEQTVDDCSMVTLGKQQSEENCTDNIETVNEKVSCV
# “And” between values parts separate entries of the source, which are not always exact repeats. Identical values can stand only once.
# Molecular target: 5-hydroxytryptamine receptor 2A (Rattus norvegicus, UniProt P14842)
row,SMILES,Ki
1,"O=C(CCCN1CCC2(CC1)C(=O)NCN2c1ccccc1)c1ccc(F)cc1 [8-[4-(4-fluorophenyl)-4-oxidanylidene-butyl]-1-phenyl-1,3,8-triazaspiro[4.5]decan-4-one]",1.24 nM and 1.04 nM
2,"CCN(CC)C(=O)[C@@H]1C=C2c3cccc4[nH]cc(c34)C[C@H]2N(C)C1 [(4R,7R)-N,N-diethyl-6-methyl-6,11-diazatetracyclo[7.6.1.0^{2,7}.0^{12,16}]hexadeca-1(16),2,9,12,14-pentaene-4-carboxamide]",5.47 nM and 3.16 nM and 3.23 nM
3,"COc1ccc2[nH]cc(CCN)c2c1 [tryptamine, 5-Methoxy]",647 nM and 215 nM and 92 nM
